From patent publication US7736624B2, “Methods and compositions for diagnostic and therapeutic targeting of COX-2” (priority 2006, dated 2010)

Protein sequences, listed by entry. Tags and fused reporters are not part of them. Residues count along the entry.
UniProt P05979, 25-600 limits assumed: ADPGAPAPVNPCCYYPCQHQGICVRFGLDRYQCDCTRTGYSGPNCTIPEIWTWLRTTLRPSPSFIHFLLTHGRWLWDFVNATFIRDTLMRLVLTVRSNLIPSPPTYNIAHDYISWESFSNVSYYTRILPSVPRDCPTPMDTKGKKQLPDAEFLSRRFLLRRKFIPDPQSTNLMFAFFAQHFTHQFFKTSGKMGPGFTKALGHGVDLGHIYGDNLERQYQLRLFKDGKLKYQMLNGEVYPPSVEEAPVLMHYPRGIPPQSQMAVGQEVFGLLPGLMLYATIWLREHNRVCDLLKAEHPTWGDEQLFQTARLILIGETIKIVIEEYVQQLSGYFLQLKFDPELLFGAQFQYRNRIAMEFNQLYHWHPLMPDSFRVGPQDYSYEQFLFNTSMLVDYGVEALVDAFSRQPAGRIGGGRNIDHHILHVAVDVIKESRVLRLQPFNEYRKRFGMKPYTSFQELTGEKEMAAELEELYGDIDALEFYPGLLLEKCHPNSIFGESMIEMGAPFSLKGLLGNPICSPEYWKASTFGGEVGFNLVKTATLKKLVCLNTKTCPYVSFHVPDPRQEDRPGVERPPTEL
UniProt P35354, 18-604 limits assumed: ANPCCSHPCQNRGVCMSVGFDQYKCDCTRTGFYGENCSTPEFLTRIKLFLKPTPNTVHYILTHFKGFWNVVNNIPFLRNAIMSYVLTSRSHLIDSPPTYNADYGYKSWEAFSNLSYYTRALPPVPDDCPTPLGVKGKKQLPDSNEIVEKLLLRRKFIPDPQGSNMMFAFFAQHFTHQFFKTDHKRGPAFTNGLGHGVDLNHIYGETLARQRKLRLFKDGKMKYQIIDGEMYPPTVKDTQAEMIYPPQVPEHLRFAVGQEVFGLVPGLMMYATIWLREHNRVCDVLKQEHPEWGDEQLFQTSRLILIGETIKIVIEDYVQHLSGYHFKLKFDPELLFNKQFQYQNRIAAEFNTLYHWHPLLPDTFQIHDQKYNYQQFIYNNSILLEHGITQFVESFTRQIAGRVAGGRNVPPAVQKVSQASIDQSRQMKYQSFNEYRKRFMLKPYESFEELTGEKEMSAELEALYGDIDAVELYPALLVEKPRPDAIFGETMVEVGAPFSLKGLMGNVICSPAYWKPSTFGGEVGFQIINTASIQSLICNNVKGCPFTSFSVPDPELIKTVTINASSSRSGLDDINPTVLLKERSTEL

Key:
ovine COX-1 = ovine COX-1 (Ovis aries, UniProt P05979); assay: IC50 determinations using purified enzymes (TLC assay), COX-1; type: biochemical
COX-2 = COX-2 (Homo sapiens, UniProt P35354); assay: IC50 determinations using purified enzymes (TLC assay), COX-2; type: biochemical; conditions: purified enzyme
[1] = read-out: IC50 COX-1, Table 1, assayed against purified enzymes

IC50 (ovine COX-1; [1]) [µM] | IC50 (ovine COX-1; read-out: IC50 for COX-1, purified enzyme) [µM] | SMILES | COX-2 inhibitory activity (in words) (COX-2)
> 4 |  | COc1ccc2c(c1)c(CC(=O)NCCCCNC(=O)CCC(=O)Nc1ccc(S(=O)(=O)Nc3nccs3)cc1)c(C)n2C(=O)c1ccc(Cl)cc1 | 
 | 4 | COc1ccc2c(c1)c(CC(=O)NCCOCCOCCOCCOCCC(=O)O)c(C)n2C(=O)c1ccc(Cl)cc1 | non-selective COX inhibitor
> 4 |  | COc1ccc2c(c1)c(CC(=O)NCCNC(=O)\C=C(C)/C=C/C=C(C)/C=C/C1=C(C)CCCC1(C)C)c(C)n2C(=O)c1ccc(Cl)cc1 | inhibited COX-2 in a highly selective fashion

Where two headings read alike, the source gives them in different places.
